The values below are quoted from earlier work in article PMC8716319 (Toxicology, 2020).

Marks after values point to notes of the source that are not given here.

This series concerns human liver microsomes. To be noted: 5-hydroxymethyl-meloxicam, ref Chesne et al., 1998, cited from earlier work.

In the case of `Cc1cnc(NC(=O)C2=C(O)c3ccccc3S(=O)(=O)N2C)s1` [meloxicam], the Vmax1 (human liver microsomes) is 34 ± 24^d pmol/min/mg protein. Moreover, the Vmax2 (low affinity activity) was 140 ± 84^d pmol/min/mg protein.
